Measurements as given in paper PMC7996082, “The translocator protein ligands as mitochondrial functional modulators for the potential anti-Alzheimer agents” (Journal of Enzyme Inhibition and Medicinal Chemistry, 2021).

Chains of the proteins cited; added tags and fusions are not shown.
UniProt P30536, whole entry: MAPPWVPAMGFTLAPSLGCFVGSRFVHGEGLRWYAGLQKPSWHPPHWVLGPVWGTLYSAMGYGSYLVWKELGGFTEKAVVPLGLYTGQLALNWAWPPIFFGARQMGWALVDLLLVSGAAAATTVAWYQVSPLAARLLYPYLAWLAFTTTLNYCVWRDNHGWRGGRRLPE

Biological target: T1, recombinant human TSPO (Homo sapiens, UniProt P30536)
T1 construct: purchased Origene Technologies, Inc. TP320107
Test: Surface plasmon resonance (SPR) binding affinity
Conditions: mean ± SD of three measurements
Method: To determine the binding affinities of the selected compounds, the KD values were measured by using Biacore T200 optical biosensor system (GE Healthcare). The recombinant human TSPO (18 kDa, Origene Technologies, Inc., No.: TP320107) was covalently immobilised on a CM5 chip (GE Healthcare) at 25 °C via standard amine-coupling protocols in 10 mM sodium acetate (pH 4.5) at a flow rate of 10 µL/min for 1500s (immobilised protein densities: 5,000–6,000 response unit (RU)). The tested compounds were initially prepared at 10 mM in DMSO, and serially diluted in PBS-P buffer (10 mM NaH2PO4, 150 mM NaCl, pH 7.4) to 1% DMSO. For each tested compound, the kinetic values were measured using a five-point concentration series, 0.001, 0.01, 0.5, 1, and 5 µM. Multiple blank samples of running buffer alone (0 µM of tested compounds) were incorporated in every measurement. The filtered PBS-P buffer containing 1% DMSO was used as a running buffer during the SPR experiments. […] The KD value of each compound was calculated by Biacore T200 evaluation software (GE Healthcare) after the standard solvent correction process.

## CCC(C)N(C)C(=O)c1cc2ccccc2c(-c2ccccc2Cl)n1 (stereo not shown) [Compound 6, N-(sec-butyl)-1–(2-chlorophenyl)-N-methylisoquinoline-3-carboxamide, reference compound]
  Kd: 1.1 ± 0.45 nM
